This passage reports cytotoxicity and solubility results from patent EP3795574A1, “SYNTHESIS AND USAGE OF 1,2-DIAMINODIAMANTANE PLATINUM(II) COMPLEXES” (Justus-Liebig-Universität Gießen, priority 2019, dated 2021).

Series [1] concerns human ovarian cancer cell line A2780. Put plainly: Cellular viability assay (resazurin / Alamar Blue, 72 h). Particulars: A2780, 72 h at 37 °C, compared to cisplatin; result in words.
Series [2] is described as follows: Solubility of the complexes in solvents. Particulars: most common solvents including N,N-dimethylformamide (DMF).

As for “cis-[1,2-diaminodiamantane]dichlorideplatinum(II)”, the cytotoxicity entry in series [1] is listed as “superior cytotoxicity compared to cisplatin”.
On to “cis-[1,2-diaminodiamantane]oxalatoplatinum(II)”, for which, in series [2], the solubility result is reported as “insoluble”.
